Values quoted from earlier work as cited in patent US20190027771A1, “ACID GAS REGENERABLE BATTERY” (Commonwealth Scientific and Industrial Research Organisation, priority 2015, published 2019).

Settings: in a 3M ammonia solution, in the presence of CO2, CO2-loading range relevant to a capture process

[Cu+2] [Cu^2+]
Solubility: at least 0.6 M
